# Laboratory results reported in patent US9474754B2, “Pharmaceutical combinations comprising a B-RAF inhibitor, and EGFR inhibitor and optionally a PI3K-α inhibitor” (NOVARTIS AG, priority 2012, dated 2016).
# Test system: HT-29 human colorectal adenocarcinoma xenograft
# Assay type: in vivo
# Protocol: A fresh suspension was prepared every two weeks and stored at room temperature.
# A fresh suspension was prepared weekly and stored at 4° C.
# Dosing solutions were freshly prepared for one group at a time.
# Each agent was administered at a single dose level, individually and in dual and triple combinations, that were initiated on Day 1 (D1) in female nude mice with established subcutaneous tumors. […] Efficacy was determined from mean tumor volume changes between D1 and D29. Prism summarizes test results as not significant (ns) at P>0.05, significant (symbolized by “*”) at 0.01<P≦0.05, very significant (“**”) at 0.001<P≦0.01, and extremely significant (“***”) at P≦0.001.
# For the purpose of statistical analyses, ΔTV, the difference in tumor volume between D1 (the start of dosing) and the endpoint day, was determined for every animal. […] The […] values are negative represent net tumor reduction for a group. […] Response to Combination Therapies (Groups 5-8)
# [1] = n = 10 per group, doses as in table
substance,measurement,setting,value
cetuximab [reference compound],Mean BW Nadir,"Cpd A 20 mg/kg po bid x 28, Cpd B 25 mg/kg po qd x 28, cetuximab 20 mg/kg ip biwk x 4, paclitaxel 30 mg/kg iv qod x 5",−1.2%
same,"Mean BW Nadir, day of nadir",doses as in table,Day 8
same,Deaths NTR,[1],0
same,Deaths TR,[1],0
